Assay results as given in IntAct's records for PubMed 32073997.

B1: AKT-interacting protein (Homo sapiens), Q9H8T0 (parent)
chain: MNPFWSMSTSSVRKRSEGEEKTLTGDVKTSPPRTAPKKQLPSIPKNALPITKPTSPAPAAQSTNGTHASYGPFYLEYSLLAEFTLVVKQKLPGVYVQPSYRSALMWFGVIFIRHGLYQDGVFKFTVYIPDNYPDGDCPRLVFDIPVFHPLVDPTSGELDVKRAFAKWRRNHNHIWQVLMYARRVFYKIDTASPLNPEAAVLYEKDIQLFKSKVVDSVKVCTARLFDQPKIEDPYAISFSPWNPSVHDEAREKMLTQKKPEEQHNKSVHVAGLSWVKPGSVQPFSKEEKTVAT

Variants of: B1
Details: with hook1_human HOOK1, Q9UJC3

effect of a mutation on the interaction	Variant
disrupting interaction strength	W106A;F107A
